Experiments:
[1] = molecular target: MAO-B (Mus musculus, UniProt Q8BW75); experiment: MAO-B activity in the mouse brain after oral administration (substrate PE)
[2] = molecular target: MAO-B (Rattus norvegicus, UniProt P19643); experiment: biochemical

Chains of the proteins cited; added tags and fusions are not shown.
UniProt Q8BW75, whole entry: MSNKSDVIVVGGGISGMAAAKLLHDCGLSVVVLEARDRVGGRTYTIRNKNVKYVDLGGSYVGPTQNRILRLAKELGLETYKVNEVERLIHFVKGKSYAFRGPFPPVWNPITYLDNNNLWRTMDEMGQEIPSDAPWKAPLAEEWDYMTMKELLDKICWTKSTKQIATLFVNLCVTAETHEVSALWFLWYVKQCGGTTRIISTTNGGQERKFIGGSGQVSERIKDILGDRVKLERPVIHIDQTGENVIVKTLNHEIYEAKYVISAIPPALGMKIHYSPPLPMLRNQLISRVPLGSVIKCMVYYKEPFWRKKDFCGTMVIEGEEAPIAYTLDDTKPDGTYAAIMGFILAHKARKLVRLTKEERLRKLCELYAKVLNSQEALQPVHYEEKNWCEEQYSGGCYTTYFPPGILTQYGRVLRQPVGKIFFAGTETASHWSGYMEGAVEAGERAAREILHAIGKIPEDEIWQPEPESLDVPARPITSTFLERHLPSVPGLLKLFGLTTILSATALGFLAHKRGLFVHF
UniProt P19643, whole entry: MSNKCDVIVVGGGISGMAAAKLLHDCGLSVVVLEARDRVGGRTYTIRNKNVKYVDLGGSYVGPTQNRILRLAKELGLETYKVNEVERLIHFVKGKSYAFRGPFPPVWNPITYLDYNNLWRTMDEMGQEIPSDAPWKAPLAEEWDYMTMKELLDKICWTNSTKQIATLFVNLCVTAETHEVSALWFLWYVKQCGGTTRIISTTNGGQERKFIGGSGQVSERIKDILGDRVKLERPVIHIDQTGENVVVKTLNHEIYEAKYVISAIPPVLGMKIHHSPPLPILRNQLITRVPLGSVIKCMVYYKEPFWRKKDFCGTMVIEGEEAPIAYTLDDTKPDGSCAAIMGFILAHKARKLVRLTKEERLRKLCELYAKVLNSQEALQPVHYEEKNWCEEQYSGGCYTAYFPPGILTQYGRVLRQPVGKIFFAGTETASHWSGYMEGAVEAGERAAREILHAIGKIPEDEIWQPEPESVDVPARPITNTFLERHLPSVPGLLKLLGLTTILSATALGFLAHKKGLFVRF

## C#CCN(C)C(C)CC.Cl.O=C(O)C(=O)O (racemic) [Example 2-BuMP]
[1]; mouse, po, 2 h, read-out: Inhibition of MAO-B activity, dose response (ID50)
  ED50: 5 mg/kg
[1]; oral 10 mg/Kg, 2 hours, PE (1.9 × 10^-5 M), mean ± standard error, saline = 100
  Relative activity PE: 28 ± 2%
[2]
  IC50: 1 µM

— patent US5508311A, “Aliphatic propargylamines as selective MAO-B inhibitors and as neuroprotective agents” (University of Saskatchewan, priority 1993, dated 1996)
